Reference: PMC7659976, “Benzobicyclo[3.2.1]octene Derivatives as a New Class of Cholinesterase Inhibitors” (Molecules, 2020)

Protein sequences, listed by entry. Tags and fused reporters are not part of them. Residues count along the entry.
UniProt P06276, 29-602 limits assumed: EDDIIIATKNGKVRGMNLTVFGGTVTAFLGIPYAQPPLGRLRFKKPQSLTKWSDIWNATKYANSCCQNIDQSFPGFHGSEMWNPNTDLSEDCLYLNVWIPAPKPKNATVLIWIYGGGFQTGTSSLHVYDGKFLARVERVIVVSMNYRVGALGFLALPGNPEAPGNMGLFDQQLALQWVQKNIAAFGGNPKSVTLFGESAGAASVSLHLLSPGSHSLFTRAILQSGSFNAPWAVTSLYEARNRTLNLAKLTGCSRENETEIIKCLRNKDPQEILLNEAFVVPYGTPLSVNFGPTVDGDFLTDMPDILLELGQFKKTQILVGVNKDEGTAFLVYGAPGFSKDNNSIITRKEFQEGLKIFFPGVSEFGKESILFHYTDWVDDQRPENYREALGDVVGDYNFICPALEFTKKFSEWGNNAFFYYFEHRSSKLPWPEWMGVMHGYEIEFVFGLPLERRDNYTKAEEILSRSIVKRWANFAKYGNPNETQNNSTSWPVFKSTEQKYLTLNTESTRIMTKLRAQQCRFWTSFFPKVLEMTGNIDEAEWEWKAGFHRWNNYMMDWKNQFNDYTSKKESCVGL

Each compound was assayed against BChE derived from purified human plasma (Homo sapiens, UniProt P06276) (assay: Reversible inhibition of human BChE (Ellman method)). Conditions: read-out: Inhibition of BChE, IC50 ± SEM; Table 2, oximes and oxime ethers; 0.1 M phosphate buffer pH 7.4, 25 °C, ATCh substrate.
Type: biochemical

Going from `O/N=C/c1cc2c(o1)CC1CC2c2ccccc21` (stereo not shown) to `O=C1CC2CC(/C1=C/C/C=N/O)c1ccccc12` (stereo not shown), the IC50 rises from 25 µM to over 500 µM.

`O/N=C/C(O)=C/C1C=CC2CC1c1ccccc12` (stereo not shown) and `O=C(/C=N/O)/C=C1\CCC2CC1c1ccccc12` (stereo not shown) are within 1.5-fold of each other in IC50: 450 µM for the first, 350 µM for the second.
